Earlier results as cited in patent US6303618A, “Cyclin dependent kinase inhibiting purine derivatives” (priority 1997, dated 2001).

Tested on: CDK5
Conditions: in words; cited from earlier work

## Cn1cnc2c(NCc3ccccc3)nc(NCCO)nc21 [Olomoucine, 2-(2-hydroxyethylamino)-6-benzylamino-9-methyl-purine]
  inhibition of CDK5: inhibit activity
